From US12089591B2 (priority 2005, dated 2024)

System: ROUNDUP READY FLEX cotton
Conditions: in vivo

## Aluminum chloride hexahydrate
  effect of metal salt on necrosis (in words): significantly reduce necrosis
